Patent US20200164078A1, “APPLICABLE CHEMICAL COMPOSITION COMPRISING AN AGENT CONJUGATED TO A HYDROPHOBIC MOIETY AND A CARRIER” (TECHNISCHE UNIVERSITEIT EINDHOVEN, priority 2017, published 2020)
“Also recorded” adds a separate entry of the source.

Test system: CC531 cells
Experiment: Release and toxicity: MTT on cells incubated below drug-loaded hydrogel inserts
Settings: 10 wt % UPy-PEG10k hydrogel, total 1.8 mM

Q: How did the “Cytotoxicity after release from hydrogel, short term (immediately / first day)” value turn out when `CO[C@@]12[C@H](COC(N)=O)C3=C(C(=O)C(C)=C(N)C3=O)N1C[C@@H]1N[C@@H]12` [MMC, Mitomycin C, reference compound] was run?
A: The value was “high activity towards killing the cells; also recorded: Short term cytotoxicity”.

Q: And the “Cytotoxicity after release from hydrogel, long term (after a few days up to 18 days)” value (gels transferred to freshly seeded cells)?
A: Its value is “effect is diminished”.
